These compounds were tested against CFTR (Homo sapiens, UniProt P13569) (assay: Short-circuit current (apical Cl− current) analysis on permeabilized CFTR-expressing FRT cells). Conditions: read-out: Ki of screening hits; dose-response measurements, confirmed by short-circuit current analysis.

Chains of the proteins cited; added tags and fusions are not shown.
UniProt P13569, whole entry: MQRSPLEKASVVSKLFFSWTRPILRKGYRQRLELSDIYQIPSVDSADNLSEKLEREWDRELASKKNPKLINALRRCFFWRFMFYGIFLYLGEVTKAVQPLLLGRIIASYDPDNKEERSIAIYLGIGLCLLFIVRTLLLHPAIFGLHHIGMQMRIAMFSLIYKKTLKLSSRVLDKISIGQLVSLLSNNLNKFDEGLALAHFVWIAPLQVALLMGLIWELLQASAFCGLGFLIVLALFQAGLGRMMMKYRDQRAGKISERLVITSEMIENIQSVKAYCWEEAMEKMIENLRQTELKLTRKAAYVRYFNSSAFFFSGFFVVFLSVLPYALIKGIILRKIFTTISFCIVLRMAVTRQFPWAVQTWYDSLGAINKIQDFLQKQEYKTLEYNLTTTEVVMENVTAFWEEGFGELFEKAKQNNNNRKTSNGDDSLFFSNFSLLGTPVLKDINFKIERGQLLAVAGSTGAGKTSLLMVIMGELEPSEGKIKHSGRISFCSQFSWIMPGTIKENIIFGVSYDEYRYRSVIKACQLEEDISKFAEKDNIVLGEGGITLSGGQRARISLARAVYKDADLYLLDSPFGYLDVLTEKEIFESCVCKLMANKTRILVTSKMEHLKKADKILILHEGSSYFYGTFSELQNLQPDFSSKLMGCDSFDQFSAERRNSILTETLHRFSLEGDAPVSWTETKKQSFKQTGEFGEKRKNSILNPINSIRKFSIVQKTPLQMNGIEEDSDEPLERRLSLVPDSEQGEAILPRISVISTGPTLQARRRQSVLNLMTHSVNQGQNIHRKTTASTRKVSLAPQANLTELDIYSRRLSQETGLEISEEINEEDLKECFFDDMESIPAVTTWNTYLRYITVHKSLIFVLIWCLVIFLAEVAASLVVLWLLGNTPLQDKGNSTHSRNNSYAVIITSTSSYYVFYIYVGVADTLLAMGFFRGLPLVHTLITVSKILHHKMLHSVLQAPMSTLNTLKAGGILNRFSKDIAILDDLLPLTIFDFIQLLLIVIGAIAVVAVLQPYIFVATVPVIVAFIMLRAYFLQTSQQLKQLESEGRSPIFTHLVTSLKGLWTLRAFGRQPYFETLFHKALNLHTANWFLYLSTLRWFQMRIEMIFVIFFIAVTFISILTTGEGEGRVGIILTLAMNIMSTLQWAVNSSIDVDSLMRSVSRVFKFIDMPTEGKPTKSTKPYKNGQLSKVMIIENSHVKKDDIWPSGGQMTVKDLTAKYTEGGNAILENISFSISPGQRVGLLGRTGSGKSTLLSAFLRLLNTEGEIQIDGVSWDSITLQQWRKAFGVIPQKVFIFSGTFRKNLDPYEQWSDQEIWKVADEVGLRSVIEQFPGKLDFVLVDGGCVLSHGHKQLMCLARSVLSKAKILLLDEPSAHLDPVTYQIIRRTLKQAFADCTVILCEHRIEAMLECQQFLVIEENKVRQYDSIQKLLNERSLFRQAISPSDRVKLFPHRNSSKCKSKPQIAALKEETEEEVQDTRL

| Ki [µM] | Compound |
| --- | --- |
| 5 | CCOC(=O)C1CCN(C(=O)Cn2cnc3sc4c(c3c2=O)CCCC4)CC1 |
| 5 | CCOC(=O)CSc1nc2ccccc2c(=O)n1-c1ccccc1C |
| 7 | CCOC(=O)C(NC(=O)c1oc(=O)c2ccccc2c1-c1ccc(C)cc1)C(=O)OCC |

From patent US7888332B2, “Hydrazide-containing CFTR inhibitor compounds and uses thereof” (The Regents of the University of California, priority 2004, dated 2011)
